Results reported in patent US8389511B2, “Bicyclic heterocyclic derivative” (Dainippon Sumitomo Pharma Co., Ltd., priority 2007, dated 2013).

Amino acid sequences for entries named in this document (tags omitted). Residues count along the entry.
UniProt P00797, 67-406 limits assumed: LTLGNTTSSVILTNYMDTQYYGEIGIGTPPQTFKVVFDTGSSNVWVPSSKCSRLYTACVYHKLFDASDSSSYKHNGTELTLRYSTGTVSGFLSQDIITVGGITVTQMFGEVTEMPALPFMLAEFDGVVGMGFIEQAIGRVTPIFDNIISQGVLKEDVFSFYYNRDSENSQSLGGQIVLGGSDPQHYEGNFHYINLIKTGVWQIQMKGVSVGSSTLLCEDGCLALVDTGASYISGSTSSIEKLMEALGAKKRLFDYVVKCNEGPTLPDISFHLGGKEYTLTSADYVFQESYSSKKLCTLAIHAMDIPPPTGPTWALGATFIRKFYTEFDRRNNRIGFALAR

Target: Recombinant human renin (Homo sapiens, UniProt P00797)
Assay: In vitro renin inhibitory activity assay (fluorescence, EDANS/DABCYL peptide substrate)
Format: biochemical
Conditions: read-out: Human renin inhibitory activity IC50; recombinant human renin (50 ng), 0.1M HEPES buffer pH 7.4, substrate 4 μM, 37° C., one hour, fluorescence 340/500 nm; tested form: HCl

Row | SMILES | IC50 [nM]
1 | COCCCN1C(=O)C(C)(C)Oc2cc(C)c(C(=O)N(C(C)C)[C@@H]3CCCNC3)cc21 | 6.1
2 | COCCCCN1C(=O)[C@@H](C)Oc2cc(Br)c(C(=O)N(C(C)C)[C@@H]3CCCNC3)cc21 | 1.9
3 | COC(=O)NCCN1C(=O)[C@@H](C)Oc2cc(Br)c(C(=O)N(C(C)C)[C@@H]3CCCNC3)cc21 | 0.4
4 | CCc1cc2c(cc1C(=O)N(C(C)C)[C@@H]1CCCNC1)N(CCCOC)C(=O)C(C)(C)O2 | 10
5 | COC(=O)NCCN1C(=O)C(C)(C)Oc2cc(Br)c(C(=O)N(C(C)C)[C@@H]3CCCNC3)cc21 | 0.1
6 | CCC1(C)Oc2cc(C#N)c(C(=O)N(C(C)C)[C@@H]3CCCNC3)cc2N(CCCOC)C1=O (some centres unmarked) | 42
7 | COCCCN1C(=O)C(C)(C)Oc2cc(Cl)c(C(=O)N(C(C)C)[C@@H]3CCCNC3)cc21 | 2.4
8 | COCCCN1C(=O)[C@@H](C)Oc2cc(Br)c(C(=O)N(C(C)C)[C@@H]3CCCNC3)cc21 | 1.7
9 | CCOCC1(C)Oc2cc(Cl)c(C(=O)N(C(C)C)[C@@H]3CCCNC3)cc2N(CCCCOC)C1=O (some centres unmarked) | 6
10 | COCCCCN1C(=O)C(C)(C)Oc2cc(Cl)c(C(=O)N(C(C)C)[C@@H]3CCCNC3)cc21 | 0.1
11 | COCCCCN1C(=O)C(C)(C)Oc2cc(C)c(C(=O)N(C(C)C)[C@@H]3CCCNC3)cc21 | 5.3
12 | CCC1(C)Oc2cc(Br)c(C(=O)N(C(C)C)[C@@H]3CCCNC3)cc2N(CCCOC)C1=O (some centres unmarked) | 3.3
13 | COCCCN1C(=O)[C@@H](C)Oc2cc(Cl)c(C(=O)N(C(C)C)[C@@H]3CCCNC3)cc21 | 12
14 | COC(=O)NCCN1C(=O)[C@@H](C)Oc2cc(C)c(C(=O)N(C(C)C)[C@@H]3CCCNC3)cc21 | 3.2
15 | CCC1(C)Oc2cc(Cl)c(C(=O)N(C(C)C)[C@@H]3CCCNC3)cc2N(CCCOC)C1=O (some centres unmarked) | 12
16 | COC(=O)NCCN1C(=O)[C@@H](C)Oc2cc(Cl)c(C(=O)N(C(C)C)[C@@H]3CCCNC3)cc21 | 4
17 | CCOCCCN1C(=O)C(C)(C)Oc2cc(Cl)c(C(=O)N(C(C)C)[C@@H]3CCCNC3)cc21 | 24
18 | CCCc1cc2c(cc1C(=O)N(C(C)C)[C@@H]1CCCNC1)N(CCCOC)C(=O)C(C)(C)O2 | 4.3
19 | COC(=O)NCCN1C(=O)C(C)(C)Oc2cc(Cl)c(C(=O)N(C(C)C)[C@@H]3CCCNC3)cc21 | 3
20 | COC(=O)NCCN1C(=O)C(C)(C)Oc2cc(C)c(C(=O)N(C(C)C)[C@@H]3CCCNC3)cc21 | 0.6
21 | COCCCCN1C(=O)[C@@H](C)Oc2cc(C)c(C(=O)N(C(C)C)[C@@H]3CCCNC3)cc21 | 3.4
22 | COCCCCN1C(=O)C(C)(C)Oc2c(Cl)cc(C(=O)N(C(C)C)[C@@H]3CCCNC3)c(Br)c21 | 5.3
23 | COCCCN1C(=O)C(C)(C)Oc2cc(C#N)c(C(=O)N(C(C)C)[C@@H]3CCCNC3)cc21 | 26
24 | COCCCCN1C(=O)[C@@H](C)Oc2cc(Cl)c(C(=O)N(C(C)C)[C@@H]3CCCNC3)cc21 | 4
25 | COCCCCN1C(=O)C(C)(C)Oc2c(Cl)cc(C(=O)N(C(C)C)[C@@H]3CCCNC3)c(Cl)c21 | 6
26 | CCC1Oc2cc(Cl)c(C(=O)N(C(C)C)[C@@H]3CCCNC3)cc2N(CCCOC)C1=O (some centres unmarked) | 17
